{"source": "paper PMC8150020", "about": "“Studying the suitability of hybrid micelle liquid chromatography for estimating the lipophilicity of some partial dopamine agonists used to attain the reward circuit” (Royal Society Open Science, 2021)", "assay": "experimental determination of log Pm/w using HMLC", "format": "physicochemical", "data": [{"substance": "(RS)-4,5,6,7-tetrahydro-N-6-propyl-2,6-benzothiazolediamine dihydrochloride monohydrate [PRM]", "values": [{"measurement": "log P (experimental log Pm/w) pH 3", "setting": "pH 3, 40°C", "result": 1.985}, {"measurement": "log P (experimental log Pm/w) pH 4", "setting": "pH 4, 40°C", "result": 2.109}, {"measurement": "log P (experimental log Pm/w) pH 5", "setting": "pH 5, 40°C", "result": 2.228}, {"measurement": "experimental log P", "setting": "pH 6", "result": 2.323}, {"measurement": "log P (experimental log Pm/w) pH 6", "setting": "pH 6, 40°C", "result": 2.323}]}]}
